## Membrane permeability of cyclic peptides

Source: CycPeptMPDB (Li et al. 2023), which took these values from Kelly et al. 2021, doi:10.1021/jacs.0c06115.

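Conditions beyond the assay type are not listed; see the original paper. The list need not hold all peptides of the study. Peptides that the database sets to -10, its floor, are left out.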

PAMPA measures passive passage through an artificial lipid membrane.
MDCK: transport across canine kidney epithelial cells.
Permeability is given as log10 of P in cm/s; higher (less negative) is more permeable.
"–" marks a cell with nothing listed here.

compound,PAMPA (log10 cm/s),MDCK (log10 cm/s)
CC(=O)N[C@@H]1C(=O)N2CCC[C@H]2C(=O)N(C)[C@H](CC(C)C)C(=O)N(C)[C@H](CC(C)C)C(=O)N[C@@H](CC(C)C)C(=O)N(C)[C@H](CC(C)C)C(=O)N[C@@H](C)C(=O)N[C@@H](CC(C)C)C(=O)N2CCC[C@@H]2C(=O)O[C@@H]1C,-5.91,–
CC(=O)N1CCC[C@H]1C(=O)N(C)[C@H](CC(C)C)C(=O)N[C@@H]1C(=O)N(C)[C@@H](CC(C)C)C(=O)N(C)[C@@H](CC(C)C)C(=O)N(C)[C@H](CC(C)C)C(=O)N(C)[C@H](C)C(=O)N[C@H](CC(C)C)C(=O)N2CCC[C@@H]2C(=O)O[C@@H]1C,-5.37,–
CC(=O)N1CCC[C@H]1C(=O)N(C)[C@@H](CC(C)C)C(=O)N[C@@H]1C(=O)N[C@H](CC(C)C)C(=O)N[C@H](CC(C)C)C(=O)N[C@H](CC(C)C)C(=O)N[C@@H](C)C(=O)N[C@@H](CC(C)C)C(=O)N2CCC[C@H]2C(=O)O[C@@H]1C,-6.77,–
CC(=O)N1CCC[C@@H]1C(=O)N(C)[C@H](CC(C)C)C(=O)N[C@@H]1C(=O)N(C)[C@@H](CC(C)C)C(=O)N[C@@H](CC(C)C)C(=O)N(C)[C@@H](CC(C)C)C(=O)N(C)[C@@H](C)C(=O)N[C@H](CC(C)C)C(=O)N2CCC[C@@H]2C(=O)O[C@@H]1C,-5.93,–
CC(=O)N1CCC[C@@H]1C(=O)N(C)[C@@H](CC(C)C)C(=O)N[C@@H]1C(=O)N[C@@H](CC(C)C)C(=O)N[C@H](CC(C)C)C(=O)N(C)[C@H](CC(C)C)C(=O)N[C@@H](C)C(=O)N[C@@H](CC(C)C)C(=O)N2CCC[C@@H]2C(=O)O[C@@H]1C,-5.87,–
CC(=O)N1CCC[C@H]1C(=O)N(C)[C@@H](CC(C)C)C(=O)N[C@@H]1C(=O)N[C@@H](CC(C)C)C(=O)N[C@@H](CC(C)C)C(=O)N(C)[C@@H](CC(C)C)C(=O)N(C)[C@H](C)C(=O)N[C@H](CC(C)C)C(=O)N2CCC[C@@H]2C(=O)O[C@@H]1C,-6.36,–
CC(=O)N1CCC[C@@H]1C(=O)N(C)[C@H](CC(C)C)C(=O)N[C@@H]1C(=O)N[C@H](CC(C)C)C(=O)N[C@@H](CC(C)C)C(=O)N[C@@H](CC(C)C)C(=O)N[C@@H](C)C(=O)N[C@H](CC(C)C)C(=O)N2CCC[C@H]2C(=O)O[C@@H]1C,-7.10,–
CC(=O)N1CCC[C@@H]1C(=O)N(C)[C@@H](CC(C)C)C(=O)N[C@@H]1C(=O)N(C)[C@H](CC(C)C)C(=O)N[C@H](CC(C)C)C(=O)N(C)[C@H](CC(C)C)C(=O)N(C)[C@H](C)C(=O)N[C@H](CC(C)C)C(=O)N2CCC[C@@H]2C(=O)O[C@@H]1C,-5.46,–
CC(=O)N1CCC[C@@H]1C(=O)N(C)[C@H](CC(C)C)C(=O)N[C@@H]1C(=O)N[C@H](CC(C)C)C(=O)N(C)[C@H](CC(C)C)C(=O)N(C)[C@H](CC(C)C)C(=O)N[C@@H](C)C(=O)N[C@@H](CC(C)C)C(=O)N2CCC[C@H]2C(=O)O[C@@H]1C,-7.24,–
CC(=O)N1CCC[C@@H]1C(=O)N(C)[C@@H](CC(C)C)C(=O)N[C@@H]1C(=O)N[C@H](CC(C)C)C(=O)N[C@H](CC(C)C)C(=O)N[C@H](CC(C)C)C(=O)N(C)[C@@H](C)C(=O)N[C@H](CC(C)C)C(=O)N2CCC[C@@H]2C(=O)O[C@@H]1C,-5.95,–
CC(=O)N1CCC[C@H]1C(=O)N(C)[C@@H](CC(C)C)C(=O)N[C@@H]1C(=O)N[C@@H](CC(C)C)C(=O)N[C@H](CC(C)C)C(=O)N[C@H](CC(C)C)C(=O)N[C@H](C)C(=O)N[C@@H](CC(C)C)C(=O)N2CCC[C@H]2C(=O)O[C@@H]1C,-6.96,–
CC(=O)N1CCC[C@@H]1C(=O)N(C)[C@@H](CC(C)C)C(=O)N[C@@H]1C(=O)N[C@H](CC(C)C)C(=O)N(C)[C@@H](CC(C)C)C(=O)N[C@@H](CC(C)C)C(=O)N(C)[C@H](C)C(=O)N[C@H](CC(C)C)C(=O)N2CCC[C@H]2C(=O)O[C@@H]1C,-5.58,–
CC(=O)N1CCC[C@H]1C(=O)N(C)[C@H](CC(C)C)C(=O)N[C@@H]1C(=O)N[C@H](CC(C)C)C(=O)N(C)[C@@H](CC(C)C)C(=O)N[C@H](CC(C)C)C(=O)N[C@H](C)C(=O)N[C@@H](CC(C)C)C(=O)N2CCC[C@H]2C(=O)O[C@@H]1C,-5.93,-6.05
CC(=O)N1CCC[C@@H]1C(=O)N(C)[C@@H](CC(C)C)C(=O)N[C@@H]1C(=O)N[C@@H](CC(C)C)C(=O)N[C@H](CC(C)C)C(=O)N(C)[C@H](CC(C)C)C(=O)N[C@@H](C)C(=O)N[C@@H](CC(C)C)C(=O)N2CCC[C@H]2C(=O)O[C@@H]1C,-6.85,–
CC(=O)N1CCC[C@H]1C(=O)N(C)[C@H](CC(C)C)C(=O)N[C@@H]1C(=O)N[C@@H](CC(C)C)C(=O)N[C@@H](CC(C)C)C(=O)N(C)[C@@H](CC(C)C)C(=O)N[C@@H](C)C(=O)N[C@@H](CC(C)C)C(=O)N2CCC[C@H]2C(=O)O[C@@H]1C,-5.90,–
CC(=O)N1CCC[C@H]1C(=O)N(C)[C@@H](CC(C)C)C(=O)N[C@@H]1C(=O)N(C)[C@@H](CC(C)C)C(=O)N(C)[C@@H](CC(C)C)C(=O)N[C@H](CC(C)C)C(=O)N(C)[C@@H](C)C(=O)N[C@H](CC(C)C)C(=O)N2CCC[C@@H]2C(=O)O[C@@H]1C,-5.96,–
CC(=O)N1CCC[C@H]1C(=O)N(C)[C@H](CC(C)C)C(=O)N[C@@H]1C(=O)N[C@@H](CC(C)C)C(=O)N[C@@H](CC(C)C)C(=O)N(C)[C@@H](CC(C)C)C(=O)N[C@@H](C)C(=O)N[C@H](CC(C)C)C(=O)N2CCC[C@@H]2C(=O)O[C@@H]1C,-6.06,–
CC(=O)N1CCC[C@@H]1C(=O)N(C)[C@@H](CC(C)C)C(=O)N[C@@H]1C(=O)N(C)[C@H](CC(C)C)C(=O)N(C)[C@@H](CC(C)C)C(=O)N[C@@H](CC(C)C)C(=O)N(C)[C@@H](C)C(=O)N[C@@H](CC(C)C)C(=O)N2CCC[C@H]2C(=O)O[C@@H]1C,-5.79,–
CC(=O)N1CCC[C@@H]1C(=O)N(C)[C@@H](CC(C)C)C(=O)N[C@@H]1C(=O)N[C@H](CC(C)C)C(=O)N(C)[C@@H](CC(C)C)C(=O)N(C)[C@H](CC(C)C)C(=O)N(C)[C@H](C)C(=O)N[C@H](CC(C)C)C(=O)N2CCC[C@H]2C(=O)O[C@@H]1C,-5.41,–
CC(=O)N1CCC[C@H]1C(=O)N[C@@H]1C(=O)N(C)[C@H](CC(C)C)C(=O)N[C@H](CC(C)C)C(=O)N[C@H](CC(C)C)C(=O)N(C)[C@H](CC(C)C)C(=O)N[C@@H](C)C(=O)N[C@@H](CC(C)C)C(=O)N2CCC[C@@H]2C(=O)O[C@@H]1C,-6.62,–
CC(=O)N1CCC[C@H]1C(=O)N[C@@H]1C(=O)N[C@H](CC(C)C)C(=O)N[C@H](CC(C)C)C(=O)N[C@H](CC(C)C)C(=O)N(C)[C@@H](CC(C)C)C(=O)N[C@H](C)C(=O)N[C@@H](CC(C)C)C(=O)N2CCC[C@@H]2C(=O)O[C@@H]1C,-6.16,–